# From US20240108738A1, “BICYCLIC PEPTIDE LIGANDS SPECIFIC FOR NK CELLS” (Bicycle Tx Limited, priority 2021, published 2024)
# Tested on: human CD16a V176 variant
# Assay: IgG competition assay (AlphaScreen), V variant
# Assay type: binding
# Conditions: N-terminally biotinylated CD16a V176 10 nM, mouse IgG2a acceptor beads
smiles,measurement,value
"C#CCCC(=O)NCCCC[C@H](NC(=O)[C@H](C)NC(=O)[C@@H]1CSCc2nc3nc(n2)CSC[C@H](NC(=O)[C@@H]2CCCN2C(=O)[C@H](CC(=O)O)NC(=O)[C@H](CCC(=O)O)NC(=O)[C@H](C(C)C)NC(=O)[C@H](CO)NC(=O)[C@H](Cc2c[nH]c4ccccc24)NC(=O)[C@H](CCCNC(=N)N)NC(=O)[C@@H](NC(=O)[C@H](C)N)CSC3)C(=O)NCC(=O)N[C@@H](C)C(=O)N[C@@H](Cc2c[nH]c3ccccc23)C(=O)N1)C(N)=O [BCY13883, A-(SEQ ID NO: 61)-A-[K(PYA)]]",IC50,2540 nM
